Results on one compound are retold here after PMC4887496, “The Mouthparts Enriched Odorant Binding Protein 11 of the Alfalfa Plant Bug Adelphocoris lineolatus Displays a Preferential Binding Behavior to Host Plant Secondary Metabolites” (Frontiers in Physiology, 2016).

The chains behind the UniProt entries cited, without tags or fusion partners. Residues count along the entry.
UniProt F4Y5P9, 20-150 limits assumed: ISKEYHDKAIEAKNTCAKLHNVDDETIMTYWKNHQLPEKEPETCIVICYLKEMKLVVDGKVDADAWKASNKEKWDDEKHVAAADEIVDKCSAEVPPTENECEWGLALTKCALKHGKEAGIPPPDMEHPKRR

The target of the experiment is recombinant AlinOBP11 (Adelphocoris lineolatus, UniProt F4Y5P9). The settings on record: 2 μM protein, 2 μM 1-NPN.

Regarding `O=c1c(O)c(-c2ccc(O)c(O)c2)oc2cc(O)cc(O)c12` [Quercetin], the IC50 (read-out: IC50 (μM) AlinOBP11, 50 mM Tris-HCl pH 7.4, competitor 2 to 30 μM, 25°C) worked out at 3.36 µM. For the same compound, the inhibition constant (Ki) (read-out: Ki (μM) AlinOBP11, calculated from IC50: Ki = [IC50]/(1+[1-NPN]/K1-NPN), pH 7.4) is 2.63 µM.

In general, IC50 refers to the concentration at which inhibition is half-maximal. One may read the Ki as a measure of affinity in units of concentration, obtained from inhibition or displacement.
